# Results: patent EP1161438B1, “6-O-SUBSTITUTED MACROLIDES HAVING ANTIBACTERIAL ACTIVITY” (ABBOTT LABORATORIES, priority 1999, dated 2000)
# Test system: Streptococcus Pneumonia 5979
# Assay: Agar dilution antibacterial MIC assay
# Format: cell-based
# Conditions: organism code ZZ, BHI agar, 35-37 °C, 20 to 24 hours, unit assumed
# Experimental: Representative compounds of the present invention were assayed in vitro for antibacterial activity as follows: Twelve petri dishes containing successive aqueous dilutions of the test compound mixed with 10 mL of sterilized Brain Heart Infusion (BHI) agar (Difco 0418-01-5) were prepared. Each plate was inoculated with 1:100 (or 1:10 for slow-growing strains, such as Micrococcus and Streptococcus) dilutions of up to 32 different microorganisms, using a Steers replicator block. The inoculated plates were incubated at 35-37 °C for 20 to 24 hours. In addition, a control plate, using BHI agar containing no test compound, was prepared and incubated at the beginning and end of each test.
# An additional plate containing a compound having known susceptibility patterns for the organisms being tested and belonging to the same antibiotic class as the test compound was also prepared and incubated as a further control, as well as to provide test-to-test comparability. Erythromycin A was used for this purpose.
# After incubation, each plate was visually inspected. The minimum inhibitory concentration (MIC) was defined as the lowest concentration of drug yielding no growth, a slight haze, or sparsely isolated colonies on the inoculum spot as compared to the growth control.
compound,measurement,value
"CC[C@H]1OC(=O)[C@H](C)[C@@H](O[C@H]2C[C@@](C)(OC)[C@@H](O)[C@H](C)O2)[C@H](C)[C@@H](O[C@@H]2O[C@H](C)C[C@H](N(C)C)[C@H]2O)[C@](C)(O)C[C@@H](C)C(=O)[C@H](C)[C@@H](O)[C@]1(C)O [Ery. A standard, Erythromycin A, reference compound]",MIC,> 128 µg/mL
